These are literature values, as cited in publication PMC5250654 (Clinical Drug Investigation, 2016).

The structures appear in SMILES notation.

The data set concerns SYK. As to conditions: read-out: SYK kinase activity IC50; ATP-competitive inhibitor; cited from earlier work.

For orientation: IC50 means the point on the concentration scale where inhibition reaches its midpoint. For the compound `c1cn2cc(-c3ccc4cn[nH]c4c3)nc(Nc3ccc(N4CCOCC4)cc3)c2n1` [entospletinib, Entospletinib], the IC50 was 7.6 nM.
